Values of other authors as cited in paper PMC12298822, “Development and Validation of a Highly Sensitive LC–MS/MS Method for the Precise Quantification of Sitagliptin in Human Plasma and Its Application to Pharmacokinetic Study” (Molecules, 2025).

Tested on: DPP-4
Set-up: method as in PMID 37287751
Settings: cited from earlier work

SMILES: N[C@@H](CC(=O)N1CCn2c(nnc2C(F)(F)F)C1)Cc1cc(F)c(F)cc1F [Sitagliptin, 7-[(3R)-3-amino-1-oxo-4-(2,4,5-trifluorophenyl)butyl]-5,6,7,8-tetrahydro-3-(trifluoromethyl)]
- preference for DPP-4 over DPP-8 and DPP-9: high preference
